Test results published in patent publication US20200345021A1, “METHOD AND SYSTEM FOR ENHANCING THE EFFICACY USING IONIZED/A[…] PEROXIDE IN REDUCING MICROBIAL POPULATIONS, METHOD OF USE THEREOF” (priority 2019, published 2020).

Tested on: S. Typhimurium
Details: with cold plasma

## OO [H2O2, hydrogen peroxide]
Granny Smith apple skins, treatment time 8 s + 30 min dwell, listed as ionized hydrogen peroxide
  Reductions of S. Typhimurium: 5.18 ± 0.19^a log CFU/piece
Granny Smith apple skins, treatment time 10 s + 30 min dwell
  Reductions of S. Typhimurium: 4.86 ± 0.58^a log CFU/piece
Grape tomato surfaces, treatment time 8 s + 30 min dwell, listed as ionized hydrogen peroxide
  Reductions of S. Typhimurium: 5.21 ± 0.49^a log CFU/piece

Like-named read-outs stand apart in the source and are kept apart here. Marks after values point to notes of the source that are not given here.
